The target in test [1] is T1, AT4 receptor (Bos taurus, UniProt F1N1Q8).
T1 sequence (F1N1Q8 1-1022): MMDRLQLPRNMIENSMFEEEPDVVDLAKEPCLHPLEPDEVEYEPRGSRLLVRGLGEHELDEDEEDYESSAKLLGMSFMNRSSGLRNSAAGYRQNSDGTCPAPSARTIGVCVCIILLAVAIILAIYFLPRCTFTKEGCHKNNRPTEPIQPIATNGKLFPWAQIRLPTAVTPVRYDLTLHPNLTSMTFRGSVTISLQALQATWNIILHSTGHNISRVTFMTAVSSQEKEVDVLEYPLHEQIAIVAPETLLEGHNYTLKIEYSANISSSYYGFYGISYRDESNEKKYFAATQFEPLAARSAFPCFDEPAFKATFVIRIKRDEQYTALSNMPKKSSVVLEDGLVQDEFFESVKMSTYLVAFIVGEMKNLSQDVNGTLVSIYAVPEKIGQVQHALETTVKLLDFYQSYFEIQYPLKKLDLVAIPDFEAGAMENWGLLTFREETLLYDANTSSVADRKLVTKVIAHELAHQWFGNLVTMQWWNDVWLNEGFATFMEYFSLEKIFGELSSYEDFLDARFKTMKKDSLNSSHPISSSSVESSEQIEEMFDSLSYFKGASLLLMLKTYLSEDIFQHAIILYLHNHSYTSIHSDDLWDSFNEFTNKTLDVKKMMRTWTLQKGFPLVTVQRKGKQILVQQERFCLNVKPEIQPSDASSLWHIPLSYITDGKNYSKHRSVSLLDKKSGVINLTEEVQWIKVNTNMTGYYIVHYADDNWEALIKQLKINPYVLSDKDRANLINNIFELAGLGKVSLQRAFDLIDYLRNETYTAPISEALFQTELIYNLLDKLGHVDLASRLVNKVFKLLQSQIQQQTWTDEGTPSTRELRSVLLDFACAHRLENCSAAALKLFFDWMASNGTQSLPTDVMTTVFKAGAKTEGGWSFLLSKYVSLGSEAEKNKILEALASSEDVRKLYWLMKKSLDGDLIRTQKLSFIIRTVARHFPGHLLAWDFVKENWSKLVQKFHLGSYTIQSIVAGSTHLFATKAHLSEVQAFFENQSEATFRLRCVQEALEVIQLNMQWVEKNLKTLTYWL
Kind of test: 125I-AIV binding and competition, solubilized bovine adrenal cortical receptor. As to conditions: competition of 125I-AIV binding.

In test [2] the test system is AIV angiotensinase. Kind of test: Formation of 125I-AIV from 125I-AI. Type of test: biochemical.
Test [3] has as its target T2, AT4 receptor (Cavia porcellus, UniProt H0VNM7).
T2 sequence (H0VNM7 1-1025): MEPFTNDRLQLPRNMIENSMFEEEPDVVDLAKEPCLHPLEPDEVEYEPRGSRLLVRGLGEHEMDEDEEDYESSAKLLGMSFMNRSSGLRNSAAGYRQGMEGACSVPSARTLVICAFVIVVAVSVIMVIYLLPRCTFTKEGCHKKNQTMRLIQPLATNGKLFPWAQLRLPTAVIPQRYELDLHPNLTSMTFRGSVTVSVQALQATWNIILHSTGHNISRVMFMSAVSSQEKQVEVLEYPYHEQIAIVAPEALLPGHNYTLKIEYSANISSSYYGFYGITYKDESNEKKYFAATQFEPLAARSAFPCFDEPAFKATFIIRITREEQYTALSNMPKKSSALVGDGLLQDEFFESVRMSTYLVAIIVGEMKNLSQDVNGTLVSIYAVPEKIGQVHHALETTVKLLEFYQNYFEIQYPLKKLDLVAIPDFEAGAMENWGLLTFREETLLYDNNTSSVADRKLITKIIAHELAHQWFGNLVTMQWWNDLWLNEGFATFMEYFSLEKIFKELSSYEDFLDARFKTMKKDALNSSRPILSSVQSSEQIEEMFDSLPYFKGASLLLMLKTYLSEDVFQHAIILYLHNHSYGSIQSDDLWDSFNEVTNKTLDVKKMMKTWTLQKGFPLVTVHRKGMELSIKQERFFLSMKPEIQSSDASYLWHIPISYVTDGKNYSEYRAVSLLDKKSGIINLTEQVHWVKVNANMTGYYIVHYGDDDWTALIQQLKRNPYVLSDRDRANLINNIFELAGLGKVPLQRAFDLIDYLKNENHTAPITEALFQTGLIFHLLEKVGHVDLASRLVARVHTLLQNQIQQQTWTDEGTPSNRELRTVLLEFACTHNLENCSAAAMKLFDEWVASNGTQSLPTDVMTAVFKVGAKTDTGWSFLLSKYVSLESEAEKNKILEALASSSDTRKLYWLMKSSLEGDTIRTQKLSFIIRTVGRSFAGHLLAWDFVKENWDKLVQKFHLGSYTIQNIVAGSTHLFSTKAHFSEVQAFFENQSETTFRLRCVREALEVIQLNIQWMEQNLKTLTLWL
Kind of test: Autoradiography of 125I-AIV binding in guinea pig brain. As to conditions: 100 nM competitor, FIG. 3.

Starred links: 1 amine or outer side, 2 acyl side, 3 side chain; linkers in the order of their positions; H or OH if unused. Non-standard residues stand in square brackets, D forms with d. Residues, ends and D or L forms follow the SMILES beside them. X2 = NCCCC[C@H](N)CN([C@@H](Cc1ccc(O)cc1)C(=O)[*:2])[*:1] Where only a bound is given, the exact number is not on record here.

The values below come from patent publication US5854388A, “Angiotensin IV peptides and receptor” (Washington State University Research Foundation, priority 1994, dated 1998).

Regarding `CC[C@H](C)[C@H](NC(=O)[C@H](Cc1ccc(O)cc1)NC[C@@H](N)CCCCN)C(=O)N[C@@H](Cc1c[nH]cn1)C(=O)N1CCC[C@H]1C(=O)N[C@@H](Cc1ccccc1)C(=O)O` [Kal1 AIV] (H-[X2]IHPF-OH), in test [1], affinity was put at a Ki of 2.13 nM. Still for that read-out and setting: as for KYI, the figure is 30 nM. For the compound `CC[C@H](C)[C@H](NC(=O)[C@H](Cc1ccc(O)cc1)NC(=O)[C@@H](NC(=O)[C@@H](N)CCCNC(=N)N)C(C)C)C(=O)N[C@@H](Cc1c[nH]cn1)C(=O)N1CCC[C@H]1C(=O)N[C@@H](Cc1ccccc1)C(=O)O` [AIII, Arg1 Val2 Tyr3 Ile4 His5 Pro6 Phe7, reference compound], the Ki in test [1] was 22.8 nM. Further, the “inhibition of 125I-AIV formation from 125I-AI” value in test [2] was “excellent and specific inhibitors”. In test [1], CGP 42112A displayed a Ki above 100000 nM. Still for that read-out and setting: as for `CC(C)[C@@H](CN[C@@H](Cc1c[nH]cn1)C(=O)N1CCC[C@H]1C(=O)N[C@@H](Cc1ccccc1)C(=O)O)NC(=O)[C@H](Cc1ccc(O)cc1)NC[C@@H](N)CCCCN` [Kal1 Val3 AIV], the figure is 1.03 nM; as for NleYI [Nle-Y-I], 8.3 nM. Still for that read-out and setting: for VYIHP [des Phe6 -AIV] the value was 74.5 nM. Consider SRVYIHPI [Sar1, Ile8 -AII], for which, in test [1], the Ki was above 1000 nM. Besides, the “inhibition of 125I-AIV binding by non-labeled competitor” value in test [3] is “not competitively inhibited”. Take “V1 Y2 I3 H4 P5 F6 H7 L8 (VYIHPFHL) [AI(3-10)]”: the Ki in test [1] was determined as 0.963 nM. On to “Asp1 Arg2 Val3 Tyr4 Ile5 His6 Pro7 Phe8 (DRVYIHPF) [AII]”, for which, in test [1], the Ki is above 1000 nM. Moreover, the “inhibition of 125I-AIV formation from 125I-AI” value in test [2] was “excellent and specific inhibitors”.
